# Experimental data as given in paper PMC8171091, “Tanshinone I, a new EZH2 inhibitor restricts normal and malignant hematopoiesis through upregulation of MMP9 and ABCG2” (Theranostics, 2021).
# Molecular target: T1, EZH2 (zEZH2) (Danio rerio, UniProt Q08BS4)
# T1 sequence (Q08BS4 1-760): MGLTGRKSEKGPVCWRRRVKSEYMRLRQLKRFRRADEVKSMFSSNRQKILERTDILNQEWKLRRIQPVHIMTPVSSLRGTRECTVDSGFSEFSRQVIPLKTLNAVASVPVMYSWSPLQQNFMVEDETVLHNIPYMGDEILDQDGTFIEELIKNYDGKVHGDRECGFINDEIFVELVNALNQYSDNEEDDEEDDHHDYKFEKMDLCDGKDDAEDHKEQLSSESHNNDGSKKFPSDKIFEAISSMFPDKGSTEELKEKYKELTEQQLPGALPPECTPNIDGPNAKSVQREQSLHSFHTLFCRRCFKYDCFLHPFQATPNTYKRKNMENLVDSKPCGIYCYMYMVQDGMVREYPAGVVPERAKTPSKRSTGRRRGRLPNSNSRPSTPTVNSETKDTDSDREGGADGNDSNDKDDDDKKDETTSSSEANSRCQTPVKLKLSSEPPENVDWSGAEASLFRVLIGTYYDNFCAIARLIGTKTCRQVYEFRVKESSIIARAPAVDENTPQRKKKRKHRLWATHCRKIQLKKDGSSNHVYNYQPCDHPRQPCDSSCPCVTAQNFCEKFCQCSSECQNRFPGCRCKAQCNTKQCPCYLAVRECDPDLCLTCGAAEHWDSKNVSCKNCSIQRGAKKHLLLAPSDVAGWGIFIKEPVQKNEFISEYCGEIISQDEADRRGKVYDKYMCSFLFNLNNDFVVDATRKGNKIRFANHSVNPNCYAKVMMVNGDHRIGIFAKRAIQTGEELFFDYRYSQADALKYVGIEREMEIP
smiles,measurement,value
CCN(c1cc(-c2ccc(CN3CCOCC3)cc2)cc(C(=O)NCc2c(C)cc(C)[nH]c2=O)c1C)C1CCOCC1 [EPZ6438],"SPR (Biacore T200), positive control","Compared to EPZ6438 (a reported EZH2 inhibitor), Tan I showed more strongly binding to EZH2"
